Results on one substance are retold here after patent US7629379B2, “Substituted phosphonate fluorescent sensors and use thereof” (Queen Mary & Westfield College, priority 2003, dated 2009).

The test system of the data set is Slices of rat brain. Nature of the data set: Penetration into rat brain slices, fluorescence microscopy. Particulars: slices 8-30 μm, in BME, one hour, washed with PBS.

As for “diethyl 7-oxomethylphosphonate -4-methylcoumarin”, the “penetration of brain cell types and regions” value was “entered into the endothelial and axon cells but not the neurons cells”.
